Patent US20110027909A1, “Chimera Compositions and Methods of Use” (priority 2009, published 2011)

By UniProt entry, the sequences of proteins in these tests, tags left out. Where a name states a change or a piece, a line headed by the entry shows the natural chain unless it says otherwise. Chains listed by the source or under a name are the forms on record and can include a tag or linker.
CRF-BP_NK1R chimera (Homo sapiens, UniProt P24387+P25103), UniProt P24387+P25103, fused, stated change not applied: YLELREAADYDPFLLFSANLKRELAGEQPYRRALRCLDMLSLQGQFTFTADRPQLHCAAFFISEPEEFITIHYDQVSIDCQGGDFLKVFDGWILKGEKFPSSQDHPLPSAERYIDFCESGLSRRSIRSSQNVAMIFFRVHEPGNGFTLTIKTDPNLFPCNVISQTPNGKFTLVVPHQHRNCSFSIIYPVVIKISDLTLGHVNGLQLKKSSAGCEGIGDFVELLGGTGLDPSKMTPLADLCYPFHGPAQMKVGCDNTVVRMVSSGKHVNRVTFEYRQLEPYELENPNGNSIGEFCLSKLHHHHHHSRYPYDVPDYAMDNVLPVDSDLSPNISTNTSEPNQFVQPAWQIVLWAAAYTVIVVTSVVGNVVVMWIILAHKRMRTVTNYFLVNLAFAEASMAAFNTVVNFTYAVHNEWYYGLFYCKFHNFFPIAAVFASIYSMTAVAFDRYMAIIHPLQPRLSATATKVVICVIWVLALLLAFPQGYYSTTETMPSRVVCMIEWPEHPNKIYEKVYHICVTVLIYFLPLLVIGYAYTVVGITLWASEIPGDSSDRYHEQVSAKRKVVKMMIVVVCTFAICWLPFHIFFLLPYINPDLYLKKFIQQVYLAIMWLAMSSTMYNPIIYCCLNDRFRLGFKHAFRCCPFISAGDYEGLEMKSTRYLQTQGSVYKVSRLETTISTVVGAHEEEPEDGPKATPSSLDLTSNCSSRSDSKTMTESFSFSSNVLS
UniProt P24387: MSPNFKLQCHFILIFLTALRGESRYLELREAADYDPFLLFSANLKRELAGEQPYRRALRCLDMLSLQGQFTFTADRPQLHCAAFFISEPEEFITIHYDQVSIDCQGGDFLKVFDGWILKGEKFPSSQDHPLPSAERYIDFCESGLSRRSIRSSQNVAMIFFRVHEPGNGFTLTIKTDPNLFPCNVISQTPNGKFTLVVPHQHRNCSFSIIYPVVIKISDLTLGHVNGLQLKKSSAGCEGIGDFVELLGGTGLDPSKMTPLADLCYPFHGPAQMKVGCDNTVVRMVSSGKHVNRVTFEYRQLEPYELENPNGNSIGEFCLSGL
UniProt P25103, whole entry: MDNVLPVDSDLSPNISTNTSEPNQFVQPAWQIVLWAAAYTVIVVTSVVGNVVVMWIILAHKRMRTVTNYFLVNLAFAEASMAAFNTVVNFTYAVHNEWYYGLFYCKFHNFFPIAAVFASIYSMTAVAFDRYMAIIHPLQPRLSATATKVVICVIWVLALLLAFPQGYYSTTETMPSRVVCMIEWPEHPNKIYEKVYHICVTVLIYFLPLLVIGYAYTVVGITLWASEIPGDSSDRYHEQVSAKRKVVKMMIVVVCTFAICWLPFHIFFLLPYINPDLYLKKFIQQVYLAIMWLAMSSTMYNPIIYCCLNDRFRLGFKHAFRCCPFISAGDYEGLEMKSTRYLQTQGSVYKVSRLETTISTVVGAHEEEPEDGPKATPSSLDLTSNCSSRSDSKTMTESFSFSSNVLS

Columns and labels:
[1] = target: T1, CRF-BP_NK1R chimera (Homo sapiens, UniProt P24387+P25103); assay: FLIPR intracellular calcium release, HEK-293 cells expressing CRF-BP_NK1R chimera; type: cell-based; settings: 1 pM-10 μM, FIGS. 9, 10
T1 construct: the construct used to create a CRF-BP(FL)_NK1R chimera; FLAG (N); expressed in transfected cells

[2] = target: NK1R (Homo sapiens, UniProt P25103); assay: FLIPR intracellular calcium release, HEK-293 cells expressing full-length NK1-R; type: cell-based; settings: Substance P, FIG. 11

Substance P
intracellular calcium release (RFU) [1]: different levels of Substance P-induced (1 pM-10 μM) intracellular calcium release in the HEK-293 cells corresponding to the concentration of Substance P
intracellular calcium release (RFU) [2]: intracellular calcium release achieved
